Measurements from ChEMBL document CHEMBL1134791, “2- and 3-substituted 1,4-naphthoquinone derivatives as subversive substrates of trypanothione reductase and lipoamide dehydrogenase from Trypanosoma cruzi: synthesis and correlation between redox cycling activities and in vitro cytotoxicity” (J Med Chem, 2001).

The chains behind the UniProt entries cited, without tags or fusion partners. Where a name states a change or a piece, a line headed by the entry shows the natural chain unless it says otherwise.
UniProt P28593: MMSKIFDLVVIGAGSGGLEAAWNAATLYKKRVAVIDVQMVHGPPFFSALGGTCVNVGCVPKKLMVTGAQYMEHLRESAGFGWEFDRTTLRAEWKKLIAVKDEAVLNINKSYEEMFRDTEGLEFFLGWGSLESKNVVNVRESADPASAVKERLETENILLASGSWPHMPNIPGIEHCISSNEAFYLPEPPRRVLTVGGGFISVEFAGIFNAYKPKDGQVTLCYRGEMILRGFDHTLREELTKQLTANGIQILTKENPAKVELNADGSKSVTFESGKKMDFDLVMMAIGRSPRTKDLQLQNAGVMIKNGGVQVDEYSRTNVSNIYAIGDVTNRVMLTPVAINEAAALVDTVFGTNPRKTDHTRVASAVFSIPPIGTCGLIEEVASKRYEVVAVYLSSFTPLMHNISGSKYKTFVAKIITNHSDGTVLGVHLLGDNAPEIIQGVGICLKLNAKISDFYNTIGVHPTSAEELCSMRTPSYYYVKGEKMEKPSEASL

Key:
[1] = biological target: Trypanothione reductase (Trypanosoma cruzi) (UniProt P28593); experiment: Rate of NADPH oxidation by TcTR in presence of 100 uM NQ was determined in comparison to intrinsic oxidase activity
Summary of the method: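 Quinone reductase activity of recombinant TcTR measured as NADPH oxidation at 340 nm. Buffer was 20 mM Hepes, 1 mM EDTA, 0.15 M KCl, pH 7.25, with 250 µM NADPH at 25 °C. Rate with naphthoquinone (100 µM for line 8, 25 µM for line 9) divided by intrinsic oxidase rate of enzyme plus NADPH alone. Mean of at least two measurements.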

[2] = tested on: Dihydrolipoyl dehydrogenase (Trypanosoma cruzi); experiment: The second order rate constant of the TcLipDH (Trypanosoma cruzi lipoamide dehydrogenase) catalyzed NADH oxidation.

In the case of CC1=C(CCC(=O)NCCCN2CCN(C)CC2)C(=O)c2c(O)cccc2C1=O, the x fold [1] is reported as 1000 100µM and the k cat/Km [2] is reported as 11.3 10e4 M-1 s-1.
